# The entries are a selection whose mix differs from that of the whole data set. Some structures have more than one record in an assay (separate samples or runs), and their calls can disagree. Calls of active or inactive are those of the source. Rule as the data show it: active = growth inhibition above about 70%; inactive = the rest.
# Test: NCI Yeast Anticancer Drug Screen. Data for the CLN2oe strain (AID 163);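 also: 0% = growth of vehicle-only control cultures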
# Conditions: S. cerevisiae CLN2oe strain, stronger effect = higher value
# Procedure: Growth inhibition of yeast strains with defined genetic alterations is measured as a screen for potential anti-cancer activity. Selected strains with alterations in DNA damage repair or cell cycle control were exposed to compounds and growth inhibition was measured relative to vehicle treated controls. The strain used in this assay is CLN2oe
SMILES,growth inhibition (at 1.2 µM),growth inhibition (at 3.7 µM),growth inhibition (at 11.0 µM),growth inhibition (at 33.0 µM),growth inhibition (at 100.0 µM)
FC1(F)SC2C(C1(F)F)C1(Cl)C(Cl)=C(Cl)C2(Cl)C1(Cl)Cl (stereo not given),inactive: 5%,inactive: 43%,active: 98%,active: 99%,active: 98%
CN(C)P(=O)(N(C)C)n1c(Nc2ccccc2)nnc1-c1ccccc1,inactive: -19%,inactive: -12%,inactive: 36%,active: 97%,inactive: 29%
CC(C)c1nc(Nc2ccccc2)n(P(=O)(N(C)C)N(C)C)n1,inactive: 8%,inactive: 0%,inactive: 14%,inactive: 61%,active: 95%
N#Cc1cc([N+](=O)[O-])cc([N+](=O)[O-])c1N,inactive: -13%,inactive: -10%,inactive: -2%,inactive: 14%,inactive: 29%
O=[N+]([O-])c1cc([N+](=O)[O-])c2nsnc2c1,inactive: -12%,inactive: 11%,active: 99%,active: 99%,active: 99%
COc1cccc(C[N+](C)(CCCl)CCCl)c1[N+](=O)[O-],inactive: 18%,inactive: 7%,inactive: 0%,inactive: 6%,inactive: 20%
O=C1OC(C(Cl)(Cl)Cl)Sc2ccccc21 (stereo not given),inactive: -4%,inactive: -3%,inactive: -12%,inactive: 2%,inactive: 21%
NC(Cc1cnc[nH]1)C(=O)O (stereo not given),inactive: 3%,inactive: 9%,active: 96%,active: 98%,active: 99%
